Drawing on patent US20240360139A1, “BLOOD BRAIN BARRIER PENETRATING SELECTIVE INHIBITORS OF ROCK2 PROTEIN KINASES AND USES THEREOF” (GENOSCO Inc., priority 2023, published 2024), this text covers IC50 for one compound.

Sequences of proteins named here, by UniProt entry; tags and fusion partners are left off. Residues count along the entry.
UniProt Q13464, 1-477 limits assumed: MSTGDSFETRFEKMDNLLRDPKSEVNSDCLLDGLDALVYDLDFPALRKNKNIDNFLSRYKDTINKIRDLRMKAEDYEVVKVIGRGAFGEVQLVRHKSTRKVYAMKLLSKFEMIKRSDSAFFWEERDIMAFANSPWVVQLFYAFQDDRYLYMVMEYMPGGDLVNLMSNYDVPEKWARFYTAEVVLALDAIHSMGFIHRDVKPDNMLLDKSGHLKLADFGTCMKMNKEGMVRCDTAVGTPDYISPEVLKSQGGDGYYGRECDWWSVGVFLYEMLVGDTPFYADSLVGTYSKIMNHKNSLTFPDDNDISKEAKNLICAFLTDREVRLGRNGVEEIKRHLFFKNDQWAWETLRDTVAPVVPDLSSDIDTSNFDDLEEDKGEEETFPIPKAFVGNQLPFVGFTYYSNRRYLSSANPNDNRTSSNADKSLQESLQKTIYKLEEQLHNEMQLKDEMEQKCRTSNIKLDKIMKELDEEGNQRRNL
UniProt O75116, 5-554 limits assumed: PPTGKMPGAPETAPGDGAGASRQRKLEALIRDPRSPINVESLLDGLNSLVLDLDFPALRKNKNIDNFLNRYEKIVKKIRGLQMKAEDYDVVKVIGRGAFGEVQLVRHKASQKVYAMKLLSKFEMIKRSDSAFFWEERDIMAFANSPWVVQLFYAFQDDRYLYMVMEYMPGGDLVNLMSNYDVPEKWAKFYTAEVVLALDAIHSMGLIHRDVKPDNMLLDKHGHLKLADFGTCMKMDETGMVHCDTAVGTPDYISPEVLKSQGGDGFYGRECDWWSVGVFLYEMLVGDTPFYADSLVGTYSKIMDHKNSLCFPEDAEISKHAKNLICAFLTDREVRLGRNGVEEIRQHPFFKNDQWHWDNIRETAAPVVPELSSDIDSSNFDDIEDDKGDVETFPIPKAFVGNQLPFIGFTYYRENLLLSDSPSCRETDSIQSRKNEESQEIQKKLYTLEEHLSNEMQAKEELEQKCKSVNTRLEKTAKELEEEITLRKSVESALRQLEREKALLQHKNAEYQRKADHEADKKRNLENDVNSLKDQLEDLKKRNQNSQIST

Test [1] concerns the target Recombinant ROCK1 (amino acids 1-477) (Homo sapiens, UniProt Q13464). Briefly: ROCK inhibition assay, LANCE Ultra TR-FRET (ROCK1). Conditions: read-out: Inhibition Activity of ROCK1 (IC50); 1 mM of ATP. The protocol: (§1) Kinase IC50 was determined through an in vitro assay based on LANCE Ultra TR-FRET (Time-Resolved Fluorescence Resonance Energy Transfer) homogeneous technologies method 5 (Perkin Elmer). Recombinant ROCK1 (amino acids 1-477) and ROCK2 (amino acids 5-554) proteins were purchased from Carna Biosciences and SignalChem. Compound activities were measured by Envision and IC50s were calculated. The assays were performed in white LUMITRAC™ 200 96 well half-area microplates from Greiner Bio-One. The kinase reaction buffer consisted of 50 mM HEPES pH 7.5, 1 mM EGTA, 10 mM MgCl2, 2 mM DTT and 0.01% 10 Tween-20. Kinases were incubated with 50 nM (ULight-CREBtide) substrate in the presence of 1 mM (ROCK1) or 1 mM (ROCK2) of ATP. The kinase reaction was carried out for 1 hour before addition of a stopping buffer to a final of 10 mM EDTA and 0.6 nM of LANCE Ultra Europium anti-phospho-CREB (Ser133) antibody (PerkinElmer TRF0200) in LANCE detection buffer. All assay incubations were performed at room temperature, and the microplates were sealed with polyester film during that time. The reaction was incubated for 1 hour, and the signal was read in Envision in TR-FRET mode (excitation at 320 nm and emission at 615/665 nm).
(§2) As used herein, a way to describe potency of inhibitory activity (nM) is a value of inhibitory activity at 50% (IC50). […]
(TR-FRET usually uses a lanthanide donor and a delayed reading to cut background.)

The target in test [2] is Recombinant ROCK2 (amino acids 5-554) (Homo sapiens, UniProt O75116). Briefly: ROCK inhibition assay, LANCE Ultra TR-FRET (ROCK2). To be noted: read-out: Inhibition Activity of ROCK2 (IC50); 1 mM of ATP. The protocol: as §1, §2

In general, IC50 refers to the concentration that inhibits the measured activity by half. `CC[C@@H](N)Cn1cc(C(=O)C2COc3ccc(Cl)cc3C2)c2ccc(-c3cn[nH]c3OC)cc21` (some centres unmarked): the values for the IC50 in test [1] and in test [2] were 0.021 to 0.2 µM and less than 0.02 µM, respectively.
